Measured values from publication PMC3412146.

Target: RIG-I(N) (no GST tag) (human)
Test: AUC

stoichiometry N (RIG-I(N) per Ub chain (printed as 4:4)) | stoichiometry N (RIG-I(N) per Ub3) | Substance
1 | – | K63-Ub4 (from UniProt P0CG48 1-76)
1 | – | K63-Ub5 (from UniProt P0CG48 1-76)
– | 1 | K63-Ub3 (from UniProt P0CG48 1-76)
